The results in this text go back to patent US20250114517A1, “SYSTEMS AND METHODS FOR MONITORING PHYSIOLOGICAL STATUS OF LIVING SUBJECT AND ADMINISTERING SUBSTANCES THEREFOR” (published 2025).

Each structure is given as a SMILES string.

In experiment [1] the test system is rats. In words: Pilot study: fentanyl-induced respiratory depression in rats, measured with a non-invasive pulse oximeter collar. To be noted: rat, Naloxone 1 mg/kg i.v. after Fentanyl 20 g/kg i.v. bolus (FIG. 20 panel D).
The subject of experiment [2] is rat. Kind of experiment: Closed-loop control of respiratory depression with the implantable device after fentanyl injection. The following applies: closed loop automated naloxone delivery by the implantable device vs manual subcutaneous naloxone injection (FIG. 11).

Turning to `C=CCN1CC[C@]23c4c5ccc(O)c4O[C@H]2C(=O)CC[C@@]3(O)[C@H]1C5`, the “Reversal of the fentanyl-induced decrease in SpO2” value in experiment [1] is “reversed”. In experiment [2], the “SpO2 recovery after Fentanyl injection (elapsed time to recover 90% SpO2)” value is listed as “comparative recovery as subcutaneous manual injection of naloxone”.
